Molecules are shown by their SMILES. The list shows a part of the results, in another mix than the full data. Active and inactive are the calls of the source. No stated cut-off is given here; in the data, active means inhibition above about 16% (passing the limit was not always enough); inactive means the rest.

Amino acid sequences for entries named in this document (tags omitted).
UniProt P48145, whole entry: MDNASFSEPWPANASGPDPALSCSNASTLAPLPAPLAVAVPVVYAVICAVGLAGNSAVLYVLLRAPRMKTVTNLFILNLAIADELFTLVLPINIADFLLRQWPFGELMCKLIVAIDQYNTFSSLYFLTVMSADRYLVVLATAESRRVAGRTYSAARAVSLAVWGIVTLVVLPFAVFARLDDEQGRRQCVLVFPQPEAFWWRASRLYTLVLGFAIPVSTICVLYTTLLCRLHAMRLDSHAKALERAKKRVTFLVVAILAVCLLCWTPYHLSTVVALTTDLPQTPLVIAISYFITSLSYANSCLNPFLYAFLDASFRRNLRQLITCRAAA

The target of this test is Neuropeptides B/W receptor type 1 (Homo sapiens) (UniProt P48145). As to the kind of experiment: GPR7 receptor antagonists, primary screen, cell-based, fluorescence, single concentration (AID 1861).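 Further: cells stimulated with the agonist NPW; 0% = agonist with vehicle and 100% = vehicle without agonist.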 As to conditions: GPR7-expressing cells, fluorescence antagonist assay; at 4.4 µM; stronger effect = higher value.
As to `CP(=O)(Oc1ccccc1)OC(c1ccccc1)C(F)(F)F` (configuration not stated), the inhibition was inactive: -20.4%. Regarding `CP(=O)(Nc1ccc(SC(F)(F)F)cc1)Oc1ccc(Cl)cc1` (configuration not stated), the inhibition was inactive: -3.19%. Then `Cc1cccc(C)c1OP(C)(=O)Nc1ccc(SC(F)(F)F)cc1` (configuration not stated), with inactive: -1.51%. The value for `Cc1cc(C)cc(OP(C)(=O)Nc2ccc(SC(F)(F)F)cc2)c1` (configuration not stated) was inactive: -2.7%; that for `CCc1ccc(OP(C)(=O)N2CCN(c3ccc([N+](=O)[O-])cc3)CC2)cc1` (configuration not stated) was inactive: -0.78%; that for `CP(=O)(NC(=O)Nc1ccccc1)Oc1ccccc1` (configuration not stated) was inactive: -13.3%. Then `CCOP(C)(=S)SCC(=O)NC(C)C(=O)O` (configuration not stated), with inactive: 7.68%; and `CCOC(=O)c1ccc(NP(C)(=O)Oc2ccc(OC)cc2)cc1` (configuration not stated), with inactive: -0.89%. Take `CP(=O)(Nc1ccccn1)Oc1ccc(Cl)cc1` (configuration not stated): the inhibition is inactive: -7.5%. The value for `CP(=S)(Nn1cnnc1)Oc1ccccc1` (configuration not stated) was inactive: -11.6%; that for `COc1ccccc1OP(C)(=O)Nc1ccccc1` (configuration not stated) was inactive: -9.13%.

Consider `CP(=O)(Nc1ccccc1Br)Oc1ccccc1` (configuration not stated), for which the inhibition was inactive: -2.36%.

For `Cc1cccc(C)c1OP(C)(N)=O` (configuration not stated), the inhibition is inactive: -3.89%. On to `CC(C)(C)c1ccc(OP(C)(=O)Nc2ccc(SC(F)(F)F)cc2)cc1` (configuration not stated), for which the inhibition is inactive: -4.13%. Then `O=[N+]([O-])c1ccc2c(c1)C=Nc1ccccc1O2`, with inactive: -12.4%; and `CCOC(=O)c1ccc(NP(C)(=O)Oc2ccccc2)cc1` (configuration not stated), with inactive: -13.1%; and `Cc1ccc(NP(C)(=O)Oc2ccccc2)c(C)c1` (configuration not stated), with inactive: -5.4%.

For the compound `COc1ccccc1OP(C)(=O)Nc1ccc(C)cc1` (configuration not stated), the inhibition was inactive: -5.63%. The value for `COc1ccc(OP(C)(=O)Nc2cccc(F)c2)cc1` (configuration not stated) was inactive: 6.87%. The value for `COc1ccccc1OP(C)(=O)Nc1cc(Cl)ccc1C` (configuration not stated) was inactive: 9.75%; that for `Cc1cc(C)cc(OP(C)(N)=O)c1` (configuration not stated) was inactive: -1.83%.

Turning to `CCN(CC)CCCOC(=O)C(O)(c1ccccc1)c1ccccc1`, the inhibition was inactive: 3.3%. The value for `COc1ccccc1OP(C)(=O)Nc1cccc(Br)c1` (configuration not stated) was inactive: -4.71%; that for `Cc1cc(C)cc(OP(C)(=O)Nc2ccc(C)cc2C)c1` (configuration not stated) was inactive: -0.6%; that for `CCOC(=O)c1ccc(NP(C)(=O)Oc2cc(C)cc(C)c2)cc1` (configuration not stated) was inactive: -0.3%. Consider `CP(=O)(Nc1cccc(Br)c1)Oc1ccccc1` (configuration not stated), for which the inhibition is inactive: 3.49%.

In the case of `Cc1cc(C)cc(OP(C)(=O)Nc2ccccn2)c1` (configuration not stated), the inhibition was inactive: 6.34%. Then `Cc1ccc(C)c(NP(C)(=O)Oc2ccccc2)c1` (configuration not stated), with inactive: -0.13%; and `O=C(O)c1cccc(Nc2c([N+](=O)[O-])cc([N+](=O)[O-])cc2[N+](=O)[O-])c1`, with active: 22.9%; and `CC1=NCCc2c1[nH]c1ccccc21.O=[N+]([O-])c1cc([N+](=O)[O-])c(O)c([N+](=O)[O-])c1`, with inactive: -3.42%. For the compound `CCOC(=O)C(CC)C1=NC(C)(C)Cc2ccccc21.O=[N+]([O-])c1cc([N+](=O)[O-])c(O)c([N+](=O)[O-])c1` (configuration not stated), the inhibition is inactive: -19.9%. The value for `O=[N+]([O-])c1cc([N+](=O)[O-])c(Nc2nnnn2CCO)c([N+](=O)[O-])c1` was inactive: -10.2%; that for `CN1CCCCC1COC(=O)C1(O)c2ccccc2CCc2ccccc21` (configuration not stated) was inactive: -0.06%. Take `COc1ccccc1OP(C)(=O)Nc1c(C)cccc1C` (configuration not stated): the inhibition was inactive: 2.47%. Take `CP(=O)(Nc1ccc(SC(F)(F)F)cc1)Oc1ccccc1` (configuration not stated): the inhibition was inactive: 0.72%. Then `CCCOc1ccc(NP(C)(=O)Oc2ccc(Cl)cc2)cc1` (configuration not stated), with active: 25.5%; and `O=[N+]([O-])c1cc([N+](=O)[O-])c(-n2nnc3ccccc32)c([N+](=O)[O-])c1`, with inactive: -10.8%; and `Cc1nc2ccc3ccccc3c2s1.O=[N+]([O-])c1cc([N+](=O)[O-])c(O)c([N+](=O)[O-])c1`, with inactive: 2.98%.

Take `CP(=O)(Nc1ccc(SC(F)(F)F)cc1)Oc1ccc(F)cc1` (configuration not stated): the inhibition was inactive: -3.5%. Then `CCOP(C)(=S)SCC(=O)NC(C)(CC)C(=O)O` (configuration not stated), with inactive: -19.8%; and `CP(=O)(Nc1ccc2c(c1)OCCO2)Oc1ccccc1` (configuration not stated), with inactive: 0.69%. Take `Cc1ccccc1NP(C)(=O)Nc1ccccc1C`: the inhibition is inactive: -10.5%.

Regarding `COc1ccc(OP(C)(=O)Nc2cccc(Br)c2)cc1` (configuration not stated), the inhibition is inactive: -6.86%. With `COc1ccc(NP(C)(=O)Oc2ccccc2OC)cc1` (configuration not stated), the inhibition is inactive: -9.97%.

Take `CN(C)CCOC(=O)C(O)(c1ccccc1)C1CCCCC1` (configuration not stated): the inhibition is inactive: 10.5%.

Take `O=[N+]([O-])c1cc([N+](=O)[O-])c(NCC2CCS(=O)(=O)C2)c([N+](=O)[O-])c1` (configuration not stated): the inhibition was inactive: -8.17%.

Turning to `Cc1cc(-c2cccc3ccccc23)c(C)cn1.O=[N+]([O-])c1cc([N+](=O)[O-])c(O)c([N+](=O)[O-])c1`, the inhibition is inactive: -11.9%.

Take `O=[N+]([O-])c1ccc(OP2(=O)COCCO2)cc1` (configuration not stated): the inhibition is inactive: 1.03%. The value for `COc1ccc(OP(C)(=O)Nc2ccc(SC(F)(F)F)cc2)cc1` (configuration not stated) was inactive: -9.69%; that for `CCOC(=O)c1ccc(NP(C)(=O)Oc2ccc(F)cc2)cc1` (configuration not stated) was inactive: -6.31%. Then `CCN(CC)CCCOC(=O)C(O)(c1ccccc1)C1CCCCC1` (configuration not stated), with inactive: 4.49%; and `CCCCCOc1ccc(NP(C)(=O)Oc2ccc(Cl)cc2Cl)cc1` (configuration not stated), with inactive: 17.8%. The value for `O=[N+]([O-])c1cc([N+](=O)[O-])c(OC2CCCCC2O)c([N+](=O)[O-])c1` (configuration not stated) was inactive: -20.4%; that for `CP(=O)(Nc1ccccc1)Oc1ccc(F)cc1` (configuration not stated) was inactive: -12.6%. As for `CC(C)c1ccc(OP(C)(=O)Nc2ccc(SC(F)(F)F)cc2)cc1` (configuration not stated), the inhibition is inactive: -6.66%. On to `CP(=O)(Nc1ccccc1F)Oc1ccccc1` (configuration not stated), for which the inhibition was inactive: -1.59%. The value for `O=C(OCCN1CCN(CCOCc2ccccc2)CC1)C(O)(c1ccccc1)c1ccccc1` was inactive: 2.99%; that for `O=C(OC1CN2CCC1CC2)c1ccc([N+](=O)[O-])cc1` (configuration not stated) was inactive: -14.4%; that for `COc1ccccc1OP(C)(=O)Nc1ccc(Br)cc1` (configuration not stated) was inactive: 3.25%. Then `CN(C)CCOC(=O)C(O)(c1ccccc1)C1CCCC1` (configuration not stated), with inactive: -13.1%; and `COc1ccc(OP(C)(=O)Nc2ccccn2)cc1` (configuration not stated), with inactive: -7.88%; and `O=[N+]([O-])c1cc([N+](=O)[O-])c(Nc2ccccn2)c([N+](=O)[O-])c1`, with inactive: 1.26%.

For the origin of these results see PubChem BioAssay AID1861 (The Scripps Research Institute Molecular Screening Center, 2009).
